Results taken from patent US10166211B1, “Nitric oxide releasing compound, pharmaceutical composition, use and synthesis method thereof” (NATIONAL CHIAO TUNG UNIVERSITY, priority 2017, dated 2019).

Experiment: Diabetic mouse hindlimb ischemia model, body weight
Type: in vivo
Conditions: type 2 diabetic mice with hindlimb ischemia, 7.8 μM, experimental period up to 21st day, FIG. 21
Excerpt: In this study, diabetic mice were subjected to hindlimb ischemia surgery. Type 2 diabetic mice (6 in each group) were fixed on the operating table and anesthetized (1-3% isoflurane/100% oxygen at a flow rate of 1 L/min). After the mice were fixed, the areas for surgery were shaved. A 1 cm long incision was cut from the knee along the leg with a surgical knife, the incision was washed with normal saline and cotton, and then the fat tissue around the thigh muscles was removed. After the fat tissue was removed and the femoral artery was exposed, the upper and lower ends of the femoral artery were tied with 7-0 surgical suture to ensure hindlimb ischemia. Finally the wound was washed with normal saline and stitched. After the mice were recovered, they were respectively administrated with 7.8 μM nitric oxide releasing reagents (RRE-1 and VEGF), and the weights of the mice were recorded. The diabetic mice were sacrificed on the 6th and 21st day. The tissue sections of the hindlimbs were taken for immunohistochemistry (IHC). The expression of eNOS, CD31, CD34, MMP-11 and VEGFA were observed respectively. In this experiment, the mice administrated with PBS were the control group.

VEGF
body weights of the diabetic mice: steadily increased
